Source: patent publication US20050153894A1, “p21 peptides” (Cyclacel Limited, priority 1999, published 2005)
Read-outs that look alike come from different tables or passages of the source.

The chains behind the UniProt entries cited, without tags or fusion partners.
UniProt P14635, whole entry: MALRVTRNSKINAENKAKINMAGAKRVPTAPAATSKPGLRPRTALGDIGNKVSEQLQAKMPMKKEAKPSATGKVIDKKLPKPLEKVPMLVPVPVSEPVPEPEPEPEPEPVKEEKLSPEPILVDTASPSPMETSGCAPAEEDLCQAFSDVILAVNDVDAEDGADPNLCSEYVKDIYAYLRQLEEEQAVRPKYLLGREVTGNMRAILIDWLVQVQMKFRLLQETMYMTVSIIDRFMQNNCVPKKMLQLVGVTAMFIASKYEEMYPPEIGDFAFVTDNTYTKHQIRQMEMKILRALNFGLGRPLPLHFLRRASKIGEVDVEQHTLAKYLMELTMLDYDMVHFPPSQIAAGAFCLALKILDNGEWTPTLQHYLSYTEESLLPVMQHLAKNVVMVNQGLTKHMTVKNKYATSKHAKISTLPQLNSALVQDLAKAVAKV
UniProt P24385, whole entry: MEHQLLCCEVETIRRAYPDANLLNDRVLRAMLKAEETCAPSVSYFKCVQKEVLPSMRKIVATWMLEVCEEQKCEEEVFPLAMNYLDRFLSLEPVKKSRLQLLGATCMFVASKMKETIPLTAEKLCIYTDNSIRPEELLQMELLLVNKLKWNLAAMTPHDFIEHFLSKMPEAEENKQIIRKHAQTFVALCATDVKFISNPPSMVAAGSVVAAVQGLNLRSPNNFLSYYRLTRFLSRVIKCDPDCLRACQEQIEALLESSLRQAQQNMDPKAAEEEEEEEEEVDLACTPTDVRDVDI
UniProt P20248, whole entry: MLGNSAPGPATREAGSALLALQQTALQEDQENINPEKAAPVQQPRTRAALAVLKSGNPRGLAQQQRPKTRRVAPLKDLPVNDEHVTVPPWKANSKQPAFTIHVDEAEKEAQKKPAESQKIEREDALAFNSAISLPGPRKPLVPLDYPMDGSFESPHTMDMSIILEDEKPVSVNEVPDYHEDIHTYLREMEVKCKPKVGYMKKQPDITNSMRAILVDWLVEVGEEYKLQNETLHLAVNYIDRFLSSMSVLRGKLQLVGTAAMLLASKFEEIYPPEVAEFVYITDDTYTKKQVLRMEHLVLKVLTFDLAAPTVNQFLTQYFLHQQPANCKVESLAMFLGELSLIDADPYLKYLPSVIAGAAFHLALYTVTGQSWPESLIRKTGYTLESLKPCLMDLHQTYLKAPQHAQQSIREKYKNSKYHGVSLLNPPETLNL

Assays:
CDK1/Cyclin B [1] = target: T1, CDK1/Cyclin B (Homo sapiens, UniProt P14635); experiment: CDK1/Cyclin B kinase assay, phosphorylation of GST-Rb; format: biochemical
T1 construct: 6xHis; made in house; host or cells: Sf9 insect cells (baculovirus co-expression)
Description: GST-Rb phosphorylation, induced by CDK4/Cyclin D1, CDK2/Cyclin E or CDK1/Cyclin B was determined by incorporation of radio-labeled phosphate in GST-Rb(772-928) using radiolabelled ATP in 96-well format in vitro kinase assay. The phosphorylation reaction mixture (total volume 40 μl) consisted of 50 mM HEPES pH 7.4, 20 mM MgCl2, 5 mM EGTA, 2 mM DTT, 20 mM β-glycerophosphate, 2 mM NaF, 1 mM Na3VO4, Protease Inhibitors Cocktail (Sigma, see above), BSA 0.5 mg/ml, 1 μg purified enzyme complex, 10 μl of GST-Rb-Sepharose beads, 100 μM ATP, 0.2 μCi ^32P-ATP. The reaction was carried out for 30 min at 30° C. at constant shaking. At the end of this period 100 μl of 50 mM HEPES, pH 7.4 and 1 mM ATP were added to each well and the total volume was transferred onto GFC filtered plate. The plate was washed 5 times with 200 μl of 50 mM HEPES, pH 7.4 and 1 mM ATP. To each well were added 50 μl scintillant liquid and the radioactivity of the samples was measured on Scintilation counter (Topcount, HP). The IC50 values of different peptides were calculated using GraFit software.

CDK1/Cyclin B [2] = target: T1, CDK1/Cyclin B; experiment: CDK1/Cyclin B kinase assay, phosphorylation of Histone 1; format: biochemical
Description: (§1) Histone 1 phosphorylation induced by CDK2/Cyclin E and CDK1/Cyclin B was measured using similar method. The concentration of Histone 1 in the kinase reaction was 1 mg/ml (unless different stated). The kinase reaction was stopped by 75 mM Phosphoric acid (100 μl per well) and the reaction mixture was transferred onto P81 plates. The plates were washed 3 times with 200 μl 75 mM orthophosphoric acid.

Cyclin D1 = target: T2, Cyclin D1 (Homo sapiens, UniProt P24385); experiment: Competitive Cyclin D1 binding assay (ELISA), immobilised biotinylated p21 (149-159)
T2 construct: made in house

PKCα = target: T3, PKCα (Homo sapiens, UniProt P17252); experiment: Protein Kinase C (PKC) α assay, phosphorylation of Histone 3; format: biochemical; details: b250: concentrations up to 100 μM
T3 construct: 6xHis; made in house; host or cells: Sf9 insect cells (baculovirus)
Description: PKCα kinase activity was measured by the incorporation of radio-labeled phosphate in Histone 3. The reaction mixture (total volume 65 μl) consist of 50 mM Tris-HCl, 1 mM Calcium acetate, 3 mM DTT, 0.03 mg/ml Phosphatidylserine, 2.4 μg/ml PMA, 0.04% NP40, 12 mM Mg/Cl, purified PKCα-100 ng, Histone 3, 0.2 mg/ml, 100 μM ATP, 0.2 μCi [γ-^32P]-ATP. The reaction was carried over 15 min at 37° C. in microplate shaker and was stopped by adding 10 μl 75 mM orthophosphoric acid and placing the plate on ice. 50 μl of the reaction mixture was transferred onto P81 filterplate and after washing off the free radioactive phosphate (3 times with 200 μl 75 mM orthophosphoric acid per well) 50 μl of scintillation liquid (Microscint 40) were added to each well and the radioactivity was measured on Scintillation counter (Topcount, HP).

CDK4/Cyclin D1 = target: T4, CDK4/Cyclin D1 (Homo sapiens, UniProt P24385); experiment: CDK4/Cyclin D1 kinase assay, phosphorylation of GST-Rb; format: biochemical
T4 construct: made in house; host or cells: CDK4: Sf9 insect cells (baculovirus)

Cyclin D1/CDK6 = Cyclin D1/CDK6 (Homo sapiens, UniProt P24385); experiment: Cyclin D1/CDK6 kinase inhibition assay; format: biochemical
CDK2/Cyclin E [3] = target: T5, CDK2/Cyclin E (Homo sapiens, UniProt P24864); experiment: CDK2/Cyclin E kinase assay, phosphorylation of Histone 1; format: biochemical
T5 construct: 6xHis; made in house; host or cells: Sf9 insect cells (baculovirus co-expression)
Description: as §1

CDK2/Cyclin E [4] = target: T5, CDK2/Cyclin E; experiment: CDK2/Cyclin E kinase assay, phosphorylation of GST-Rb; format: biochemical
Cyclin A = Cyclin A (Homo sapiens, UniProt P20248); experiment: Cyclin A binding assay, immobilised biotinyl-Ahx-[…]NH2; details: truncated peptides, competitive cyclin A binding

Row | Compound | inhibition of CDK1/cyclin B phosphorylation of GST-pRb, in words (CDK1/Cyclin B [1]) | inhibition of CDK1/cyclin B phosphorylation of histone H1, in words (CDK1/Cyclin B [2]) | competition with Biotin-DFYHSKRRLIF for binding to Cyclin D1, in words (Cyclin D1) | inhibition of PKCα phosphorylation of Histone 3, in words (PKCα) | inhibition of CDK4/Cyclin D1 phosphorylation of GST-Rb, in words (CDK4/Cyclin D1) | Kinase Inhibition Cyclin D1/CDK4 % Inhibition (CDK4/Cyclin D1; phosphorylation of pRb) [%] | Kinase Inhibition Cyclin D1/CDK6 % Inhibition (Cyclin D1/CDK6) [%] | inhibition of CDK2/Cyclin E phosphorylation of Histone 1, in words (CDK2/Cyclin E [3]) | inhibition of CDK2/Cyclin E phosphorylation of Histone 1, in words (CDK2/Cyclin E [3]; listed as p21 (141-160)153A) | inhibition of CDK2/Cyclin E phosphorylation of Histone 1, in words (CDK2/Cyclin E [3]; listed as p21 (149-160)153A) | IC50 relative to IC50 of p21^WAF1, CDK2-Cyclin E phosphorylation of GST-Rb (CDK2/Cyclin E [4]; fold higher) | inhibition of CDK2/Cyclin E phosphorylation of GST-Rb, in words (CDK2/Cyclin E [4]; listed as p21 (141-160)153A) | inhibition of CDK2/Cyclin E phosphorylation of GST-Rb, in words (CDK2/Cyclin E [4]; listed as p21 (149-160)153A) | Cyclin A Binding Maximum Inhibition (Cyclin A) [%]
1 | CC[C@H](C)[C@H](NC(=O)[C@H](CC(C)C)NC(=O)[C@H](CCCNC(=N)N)NC(=O)[C@H](CCCNC(=N)N)NC(=O)[C@H](CCCCN)NC(=O)[C@H](C)NC(=O)[C@@H](N)Cc1c[nH]cn1)C(=O)N[C@@H](Cc1ccccc1)C(N)=O | not effective | not effective | highest potency | did not inhibit | highest potency | 82 | 100 |  |  |  |  |  |  | 
2 | CC[C@H](C)[C@H](NC(=O)[C@H](CC(C)C)NC(=O)[C@H](CCCNC(=N)N)NC(=O)[C@H](CCCNC(=N)N)NC(=O)[C@H](CCCCN)NC(=O)[C@H](C)NC(=O)[C@H](Cc1c[nH]cn1)NC(=O)[C@H](Cc1ccc(O)cc1)NC(=O)[C@H](Cc1ccccc1)NC(=O)[C@@H](N)CC(=O)O)C(=O)N[C@@H](Cc1ccccc1)C(=O)N[C@@H](CO)C(N)=O [p21(149-160)Ser153Ala] |  | did not have any significant effect |  |  |  |  |  | completely inactive | not | do not inhibit | approximately 50 fold | strong inhibitor | specifically inhibit | 
3 | RRLIF [compound 33] |  |  |  |  |  |  |  |  |  |  |  |  |  | 100
